## Yeast mating assay 1: variants of the scFv Ab-14

Binding partner: SARS-CoV-2 spike HR2 peptide, sequence PDVDLGDISGINAS.

Each scFv is VH, a (GGGGS)3 linker, VL, as in the parent Ab-14, and differs from it in the CDRs of the heavy chain only.
VH: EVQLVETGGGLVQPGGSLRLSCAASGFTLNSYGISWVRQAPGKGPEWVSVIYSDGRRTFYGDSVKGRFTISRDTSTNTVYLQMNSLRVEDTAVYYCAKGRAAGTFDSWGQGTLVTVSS
VL: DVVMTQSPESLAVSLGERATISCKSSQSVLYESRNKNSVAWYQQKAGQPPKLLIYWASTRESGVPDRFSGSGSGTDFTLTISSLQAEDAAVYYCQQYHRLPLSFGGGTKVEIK

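In library AAYL49, one, two or three CDR residues were substituted; doubles and triples were drawn at random. Affinity was read by AlphaSeq, a pooled yeast mating assay with surface-displayed partners. After mating in shaken culture at 30 °C for 16 h, diploids were selected and their barcode pairs sequenced. Scores were corrected for input abundance and mapped to Kd with protein pairs of known affinity run in the same pool. Mating was done three times.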

Substitutions are numbered in sequence along the VH above, starting at 1 (not Kabat).
Numbers give log10(Kd / nM), so 0 is 1 nM and 3 is 1 µM. Smaller is tighter.
The mean shown is taken over the replicates in which the pair was detected.
"ND" means that the variant was in the library but no mating with the target was seen in that replicate; the authors take this as a sign of poor binding, and no number exists.

| changes | log10 Kd (nM) by replicate | mean, log10 nM | control signals |
|---|---|---|---|
| R56W/T104S/F105C | ND 3.16 2.60 | 2.88 | 3 of 9 (4.10) |
| V50L/R57D/Y60V | ND ND ND | ND | 0 of 9 |
| L29V/V50D/R100E | 4.16 4.85 4.19 | 4.40 | 4 of 9 (5.05) |
| N30E/G61D/D62Q | 0.65 0.92 0.93 | 0.83 | 2 of 9 (4.33) |
| N30L/Y32Q/R100F | 3.59 3.74 4.66 | 3.99 | 3 of 9 (5.52) |
| L29T/Y60M/R100S | ND ND ND | ND | 0 of 9 |
| F27I/G61M/A101Y | ND ND 2.38 | 2.38 | 0 of 9 |
| T104S | 0.97 1.20 1.31 | 1.16 | 2 of 9 (4.34) |
| Y32C/V50T | 4.07 ND ND | 4.07 | 1 of 9 (3.44) |
| Y52N/R57Q/A101H | ND 4.39 5.33 | 4.86 | 2 of 9 (4.00) |
| I51W/V64Y/R100D | ND ND ND | ND | 0 of 9 |
| I34Y/V64N | 4.14 ND ND | 4.14 | 5 of 9 (4.22) |
| G33E/K65S/S107G | 5.53 ND ND | 5.53 | 1 of 9 (3.52) |
| I51D/S63C/V64I | ND 3.69 ND | 3.69 | 0 of 9 |
| N30R/I34R/S63R | ND ND ND | ND | 0 of 9 |
| N30Q/F105A/D106S | ND ND ND | ND | 1 of 9 (4.07) |
| L29F/F59H/G99T | ND ND ND | ND | 0 of 9 |
| I34Q/V64W/D106S | ND ND ND | ND | 0 of 9 |
| S53V/K65A/G103W | ND 2.96 3.12 | 3.04 | 1 of 9 (4.27) |
| I51S/D54E/S63L | ND ND ND | ND | 0 of 9 |
| L29A/Y60G/T104K | ND ND ND | ND | 0 of 9 |
| F27V/S35P/A101D | ND ND ND | ND | 4 of 9 (3.43) |
| L29K/N30E/R100M | ND ND ND | ND | 1 of 9 (2.24) |
| Y52I/G99V/S107D | ND ND 2.29 | 2.29 | 0 of 9 |
| R57T/G61M/F105S | ND ND ND | ND | 2 of 9 (4.55) |
| F59T | 1.82 1.88 2.10 | 1.93 | 3 of 9 (4.87) |
| Y60C/S63M/K65W | ND ND ND | ND | 0 of 9 |
| N30F/G33N | 6.00 3.62 ND | 4.81 | 3 of 9 (4.84) |
| V50D/G55M/S107P | ND 4.29 ND | 4.29 | 0 of 9 |
| T58S/A102M | 0.94 1.20 1.03 | 1.06 | 1 of 9 (3.28) |

Excerpt, the first 5 entries:

{"changes": "R56W/T104S/F105C", "log10 Kd (nM) by replicate": "ND 3.16 2.60", "mean, log10 nM": "2.88", "control signals": "3 of 9 (4.10)"}
{"changes": "V50L/R57D/Y60V", "log10 Kd (nM) by replicate": "ND ND ND", "mean, log10 nM": "ND", "control signals": "0 of 9"}
{"changes": "L29V/V50D/R100E", "log10 Kd (nM) by replicate": "4.16 4.85 4.19", "mean, log10 nM": "4.40", "control signals": "4 of 9 (5.05)"}
{"changes": "N30E/G61D/D62Q", "log10 Kd (nM) by replicate": "0.65 0.92 0.93", "mean, log10 nM": "0.83", "control signals": "2 of 9 (4.33)"}
{"changes": "N30L/Y32Q/R100F", "log10 Kd (nM) by replicate": "3.59 3.74 4.66", "mean, log10 nM": "3.99", "control signals": "3 of 9 (5.52)"}

For reference, the parent read 0.65 as the reference entry and 4.11 (one replicate of three) as a member of this library.
As a blank, each scFv also met three strains without target: over library AAYL49, 15% of these pairings were detected, typically at 4.06 and seldom below 2.83. The control count says in how many pairings with the empty strains this scFv gave a signal, with their mean in brackets.

Reference: Engelhart et al. 2022, doi:10.1038/s41597-022-01779-4. File: FLAb, binding data.